The target of one assay is T1, hDM2 (In-house, 41 kD) (human, UniProt Q00987 1-125, limits assumed).
T1 construct: Only 'In-house, 41 kD' is said of the protein in the assay; also called hMDM2
Kind of assay: fluorescence polarization, direct binding; hDM2 titrated against 10 nM FAM labeled peptide. Here is the method:
(§1) The assay was performed according to the following general protocol: 1. Dilute hDM2 (In-house, 41 kD) into FP buffer (High salt buffer-200 mM Nacl, 5 mM CHAPS, pH 7.5) to make 10 µM working stock solution. 2. Add 30 µl of 10 µM of protein stock solution into A1 and B1 well of 96-well black HE microplate (Molecular Devices). 3. Fill in 30 µl of FP buffer into column A2 to A12, B2 to B12, C1 to C12, and D1 to D12. 4. 2 or 3 fold series dilution of protein stock from A1, B1 into A2, B2; A2, B2 to A3, B3; ... to reach the single digit nM concentration at the last dilution point. 5. Dilute 1 mM (in 100% DMSO) of FAM labeled linear peptide with DMSO to 100 µM (dilution 1:10). Then, dilute from 100 µM to 10 µM with water (dilution 1:10) and then dilute with FP buffer from 10 µM to 40 nM (dilution 1:250). This is the working solution which will be a 10 nM concentration in well (dilution 1:4). Keep the diluted FAM labeled peptide in the dark until use 6. Add 10 µl of 10 nM of FAM labeled peptide into each well and incubate, and read at different time points.

Chains of the proteins cited; added tags and fusions are not shown. Residues count along the entry.
UniProt Q00987, 1-125 limits assumed: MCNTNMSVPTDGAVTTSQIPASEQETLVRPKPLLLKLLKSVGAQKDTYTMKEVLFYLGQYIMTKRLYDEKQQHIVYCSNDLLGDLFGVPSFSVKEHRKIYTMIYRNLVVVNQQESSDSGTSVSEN

The target in the next assay is T2, hDMX (In-house, 40 kD) (human, UniProt O15151 1-120, limits assumed).
T2 construct: Only 'In-house, 40 kD' is said of the protein in the assay; also called HDM4
T2 sequence (looked up): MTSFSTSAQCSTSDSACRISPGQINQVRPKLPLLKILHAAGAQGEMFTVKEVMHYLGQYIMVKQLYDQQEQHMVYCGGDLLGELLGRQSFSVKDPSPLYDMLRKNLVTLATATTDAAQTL
As to the kind of experiment: fluorescence polarization, direct binding; hDMX titrated against 10 nM FAM labeled peptide. The protocol: as §1, with “Dilute hDMX” for “Dilute hDM2”, “(In-house, 40” for “(In-house, 41”, “until use.” for “until use”
Background: In fluorescence polarisation assays a small probe gives low polarisation when free and higher when bound to something large.

Drawing on patent US8859723 (AILERON THERAPEUTICS, dated 2014), this text covers Kd for one molecule.

In general, Kd refers to the equilibrium constant for the complex coming apart. A lower Kd goes with tighter binding.

B1: 5-FAM-BaLTFEHYWAQLTS-NH2 (SEQ ID NO: 795) (peptide)
peptide: ALTFEHYWAQLTS
modifications: N-terminal 5-FAM label; 'Ba' residue after the label (abbreviation not defined in the filing); C-terminal amide (-NH2)
notes: Synthetic fluorescent tracer peptide; also called FAM labeled linear peptide; FAM labeled peptide
B1: the Kd with hDM2 (In-house, 41 kD) is ~0.0134 µM; with hDMX (In-house, 40 kD), ~0.051 µM.
